Assay [1] deals with Translocator protein (Rattus norvegicus) (UniProt P16257). The assay is described as follows: Ratio of Ki of drug to PK11195 for PBR in rat kidney mitochondrial membrane. The format is cell membranes.
Assay [2] has the same target. The assay is described as follows: Ratio of Ki of drug to Ro54864 for PBR in rat kidney mitochondrial membrane. In kind it is cell membranes.

Protein sequences, listed by entry. Tags and fused reporters are not part of them.
UniProt P16257, whole entry, looked up: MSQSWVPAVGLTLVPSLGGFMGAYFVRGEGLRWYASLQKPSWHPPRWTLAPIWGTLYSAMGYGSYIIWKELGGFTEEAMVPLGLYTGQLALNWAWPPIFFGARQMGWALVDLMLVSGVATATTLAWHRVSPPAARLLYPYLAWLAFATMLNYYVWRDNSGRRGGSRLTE

Molecules are shown by their SMILES.

With `CN(CCCF)C(=O)c1cc2ccccc2c(-c2ccccc2I)n1`, the Ratio Ki in assay [1] was found to be 111; in assay [2], 131.
In the same order, the values of `CN(CCCF)C(=O)c1cc2ccccc2c(-c2ccc(I)cc2)n1` are 0.46 and 0.54.
Turning to `CN(CCF)C(=O)c1cc2ccccc2c(-c2ccccc2I)n1`, the Ratio Ki in assay [1] is 0.07; in assay [2], 0.08.

The values above are taken from ChEMBL document CHEMBL1150372, “Synthesis, fluorine-18 radiolabeling, and in vitro characterization of 1-iodophenyl-N-methyl-N-fluoroalkyl-3-isoquinoline carboxamide derivatives as potential PET radioligands for imaging peripheral benzodiazepine receptor” (Bioorg Med Chem, 2008).
